By UniProt entry, the sequences of proteins in these tests, tags left out. Residues count along the entry.
UniProt P35916, 25-1363: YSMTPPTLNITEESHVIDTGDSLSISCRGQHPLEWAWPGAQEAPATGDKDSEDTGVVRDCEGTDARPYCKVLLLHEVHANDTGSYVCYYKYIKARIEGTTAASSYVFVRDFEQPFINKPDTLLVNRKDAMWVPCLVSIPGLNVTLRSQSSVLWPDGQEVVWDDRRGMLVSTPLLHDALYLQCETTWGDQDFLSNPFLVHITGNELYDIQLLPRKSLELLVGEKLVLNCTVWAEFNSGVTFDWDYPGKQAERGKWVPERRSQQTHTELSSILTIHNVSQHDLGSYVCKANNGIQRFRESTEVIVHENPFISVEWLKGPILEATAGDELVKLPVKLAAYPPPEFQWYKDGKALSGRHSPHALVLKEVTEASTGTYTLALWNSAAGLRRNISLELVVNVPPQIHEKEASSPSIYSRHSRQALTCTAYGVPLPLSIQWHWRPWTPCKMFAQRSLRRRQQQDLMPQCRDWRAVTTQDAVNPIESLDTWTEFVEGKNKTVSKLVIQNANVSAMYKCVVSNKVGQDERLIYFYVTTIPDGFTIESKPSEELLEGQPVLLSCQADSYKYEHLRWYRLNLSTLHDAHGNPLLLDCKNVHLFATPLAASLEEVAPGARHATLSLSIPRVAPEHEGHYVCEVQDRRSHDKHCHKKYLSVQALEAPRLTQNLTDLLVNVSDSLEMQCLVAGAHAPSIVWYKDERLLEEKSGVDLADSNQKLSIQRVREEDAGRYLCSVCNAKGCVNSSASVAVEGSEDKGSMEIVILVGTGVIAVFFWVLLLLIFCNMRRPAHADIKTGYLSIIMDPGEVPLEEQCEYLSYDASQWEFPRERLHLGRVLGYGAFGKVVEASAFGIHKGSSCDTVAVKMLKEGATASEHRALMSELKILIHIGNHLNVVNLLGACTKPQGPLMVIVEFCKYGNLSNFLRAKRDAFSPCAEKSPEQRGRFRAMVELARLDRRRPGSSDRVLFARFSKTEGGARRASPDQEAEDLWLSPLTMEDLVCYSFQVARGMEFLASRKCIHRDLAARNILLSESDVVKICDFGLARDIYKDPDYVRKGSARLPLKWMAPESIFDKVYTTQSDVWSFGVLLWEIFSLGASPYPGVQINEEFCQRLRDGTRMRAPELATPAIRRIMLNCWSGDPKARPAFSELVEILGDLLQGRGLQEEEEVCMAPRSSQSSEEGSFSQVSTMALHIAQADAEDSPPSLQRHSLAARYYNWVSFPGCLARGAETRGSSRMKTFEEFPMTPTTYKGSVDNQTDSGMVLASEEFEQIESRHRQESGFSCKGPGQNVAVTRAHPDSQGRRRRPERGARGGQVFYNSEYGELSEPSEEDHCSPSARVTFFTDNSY
UniProt P35916, 798-1298 isoform P35916-1: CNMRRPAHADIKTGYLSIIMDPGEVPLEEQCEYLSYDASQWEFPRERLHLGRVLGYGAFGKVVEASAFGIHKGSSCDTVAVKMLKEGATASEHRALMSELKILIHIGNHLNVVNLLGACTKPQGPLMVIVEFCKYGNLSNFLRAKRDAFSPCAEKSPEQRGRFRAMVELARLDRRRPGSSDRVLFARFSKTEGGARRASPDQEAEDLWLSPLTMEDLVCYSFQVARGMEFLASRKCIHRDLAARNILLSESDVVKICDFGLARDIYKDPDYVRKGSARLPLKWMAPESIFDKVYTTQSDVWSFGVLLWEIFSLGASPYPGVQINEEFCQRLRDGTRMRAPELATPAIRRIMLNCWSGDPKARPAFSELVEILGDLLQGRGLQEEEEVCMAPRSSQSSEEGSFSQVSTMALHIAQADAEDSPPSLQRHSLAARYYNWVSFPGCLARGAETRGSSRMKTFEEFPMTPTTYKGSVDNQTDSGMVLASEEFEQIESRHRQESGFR

In patent US20160009686A1, “VEGFR3 INHIBITORS” (CANCER THERAPEUTICS CRC PTY LIMITED, priority 2012, published 2016):

Experiments:
VEGFR3 = VEGFR3 (Homo sapiens, UniProt P35916); assay: VEGFR3 Phospho ELISA Assay; type: cell-based; details: HMVEC-dLyAD cells, treated for 1 hour, VEGFC stimulated; phospho VEGFR3 relative to Total VEGFR3
[1] = molecular target: VEGFR3 cytoplasmic domain (Homo sapiens, UniProt P35916); assay: VEGFR3 Biochemical Assay (AlphaScreen); details: GST-fusion enzyme, 500 μM ATP, 90 minutes at 30 degree Celsius (modified form in some cases: Hexa-His-fusion enzyme, 1 μM ATP)

| SMILES | IC50 (VEGFR3) [µM] | IC50 [1] [µM] |
| --- | --- | --- |
| CC(C(N)=O)c1ccccc1CCc1nc(Nc2cnn(C3CCN(C)CC3)c2)ncc1C(F)(F)F (single isomer, unassigned) [Compound 57-2A, 2-(2-(2-(2-((1-(1-Methylpiperidin-4-yl)-1H-pyrazol-4-yl)amino)-5-(trifluoromethyl)pyrimidin-4-yl)ethyl)phenyl)propanamide] | 0.019 |  |
| CC(C(N)=O)c1ccccc1CCc1nc(Nc2cnn(C3CCN(C)CC3)c2)ncc1C(F)(F)F (stereo not drawn) [Compound 57, 2-(2-(2-(2-((1-(1-Methylpiperidin-4-yl)-1H-pyrazol-4-yl)amino)-5-(trifluoromethyl)pyrimidin-4-yl)ethyl)phenyl)propanamide] | 0.027 | 0.027 |
